# This is a selection; strong and weak results do not stand in their true shares. Records with an inconclusive call do not appear. Activity calls are given as the source filed them. The call rests on the fitted dose curve.
# Chains of the proteins cited; added tags and fusions are not shown.
# UniProt P00519, whole entry, looked up: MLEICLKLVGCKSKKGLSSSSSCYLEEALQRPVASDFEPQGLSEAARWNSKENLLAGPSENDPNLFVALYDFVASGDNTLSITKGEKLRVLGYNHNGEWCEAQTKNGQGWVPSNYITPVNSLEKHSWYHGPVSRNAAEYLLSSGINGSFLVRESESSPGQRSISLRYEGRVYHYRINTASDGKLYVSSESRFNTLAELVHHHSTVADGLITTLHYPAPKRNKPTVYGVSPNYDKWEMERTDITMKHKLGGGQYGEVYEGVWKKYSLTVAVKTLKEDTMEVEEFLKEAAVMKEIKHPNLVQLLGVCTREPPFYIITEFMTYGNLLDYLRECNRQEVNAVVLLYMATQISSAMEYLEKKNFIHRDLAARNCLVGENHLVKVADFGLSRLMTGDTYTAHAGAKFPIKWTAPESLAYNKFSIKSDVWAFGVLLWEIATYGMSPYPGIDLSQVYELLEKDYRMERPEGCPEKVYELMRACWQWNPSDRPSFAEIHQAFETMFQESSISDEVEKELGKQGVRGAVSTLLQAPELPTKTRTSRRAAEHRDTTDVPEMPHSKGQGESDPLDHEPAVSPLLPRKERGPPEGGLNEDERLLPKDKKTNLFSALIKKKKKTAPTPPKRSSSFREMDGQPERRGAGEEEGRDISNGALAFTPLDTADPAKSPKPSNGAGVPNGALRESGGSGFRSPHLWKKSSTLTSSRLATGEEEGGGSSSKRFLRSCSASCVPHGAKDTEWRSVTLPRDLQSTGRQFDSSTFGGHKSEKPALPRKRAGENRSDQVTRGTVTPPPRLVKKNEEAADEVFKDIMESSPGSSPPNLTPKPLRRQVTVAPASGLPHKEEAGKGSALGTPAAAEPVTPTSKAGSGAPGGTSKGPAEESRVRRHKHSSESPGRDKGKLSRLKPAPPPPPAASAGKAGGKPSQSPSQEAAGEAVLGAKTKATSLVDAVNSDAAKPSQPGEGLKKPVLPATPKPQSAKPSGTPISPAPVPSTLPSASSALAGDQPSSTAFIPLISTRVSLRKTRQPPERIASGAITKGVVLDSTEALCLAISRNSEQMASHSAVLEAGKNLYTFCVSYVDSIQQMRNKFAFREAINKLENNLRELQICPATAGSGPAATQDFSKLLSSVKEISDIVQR
# Biological target: Tyrosine-protein kinase ABL1 (Homo sapiens) (UniProt P00519)
# Assay: ABL1 kinase (ABL1-N-HiBiT) enzymatic inhibition screen - Functional assay
# Details: luminescence
# Source text: National Center for Advancing Translational Sciences (NCATS),
# National Institute of Health (NIH), Maryland
# Discovery and optimization of novel protein-binding ligands underlies many of the methods and applications of biology, drug discovery, clinical diagnostics, and environmental toxicology. Assays for detecting the interaction of, for example, a molecule with a macromolecular target also referred to here as the target of interest (TOI) is dependent on a compatible output technology. Depending on the nature and knowledge surrounding the TOI, whether a receptor, enzyme, regulatory subunit or scaffold, or a sequence-defined nucleic acid folded into a complex tertiary structure, assay strategies can vary widely.
# Here we exploit ligand-biased changes in the structural dynamics of the target protein to control reporter alpha complementation allowing a non-competitive, non-functional, non-separation measure of ligand-target interaction. […]
# SEQUENCE No. (e.g., 1, 2, 3, etc.); […] (e.g., C. elegans, Compounds, Incubation, Read, etc.); VALUE and DESCRIPTION. […]
# 7. […] (Functional assay) Luminescence measured using CCD-based camera (ViewLux) with settings as follows: Exposure, 1 sec; Gain, High; Speed, Slow; Binning, 2X. […]
compound,measurement,value
Cc1ccc(NC(=O)c2ccc(CN3CCN(C)CC3)cc2)cc1Nc1nc(-c2cccnc2)cs1,Potency,active: 12.6 µM

# — PubChem BioAssay AID1963317 (National Center for Advancing Translational Sciences (NCATS), 2024)
